Here are results for one molecule from publication PMC6761529 (Antimicrobial Agents and Chemotherapy, 2019).

Protein sequences, listed by entry. Tags and fused reporters are not part of them. Residues count along the entry.
UniProt Q9F663, 25-293 P103R/V239G: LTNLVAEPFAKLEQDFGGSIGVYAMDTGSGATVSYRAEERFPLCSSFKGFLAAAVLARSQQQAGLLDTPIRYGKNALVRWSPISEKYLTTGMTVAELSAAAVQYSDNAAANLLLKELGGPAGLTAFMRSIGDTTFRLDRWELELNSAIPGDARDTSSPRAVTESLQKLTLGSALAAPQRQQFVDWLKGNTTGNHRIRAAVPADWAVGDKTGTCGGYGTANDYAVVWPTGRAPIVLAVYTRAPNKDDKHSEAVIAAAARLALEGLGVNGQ
UniProt Q9F663, 25-293 limits assumed: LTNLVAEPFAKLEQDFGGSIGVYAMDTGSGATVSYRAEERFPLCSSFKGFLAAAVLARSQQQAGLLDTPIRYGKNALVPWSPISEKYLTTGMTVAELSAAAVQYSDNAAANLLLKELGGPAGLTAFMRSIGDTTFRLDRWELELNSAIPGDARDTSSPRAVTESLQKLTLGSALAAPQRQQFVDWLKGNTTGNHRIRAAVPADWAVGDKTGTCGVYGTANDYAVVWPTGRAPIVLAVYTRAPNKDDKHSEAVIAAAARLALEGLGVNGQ
UniProt Q9F663, 25-293 H272Y: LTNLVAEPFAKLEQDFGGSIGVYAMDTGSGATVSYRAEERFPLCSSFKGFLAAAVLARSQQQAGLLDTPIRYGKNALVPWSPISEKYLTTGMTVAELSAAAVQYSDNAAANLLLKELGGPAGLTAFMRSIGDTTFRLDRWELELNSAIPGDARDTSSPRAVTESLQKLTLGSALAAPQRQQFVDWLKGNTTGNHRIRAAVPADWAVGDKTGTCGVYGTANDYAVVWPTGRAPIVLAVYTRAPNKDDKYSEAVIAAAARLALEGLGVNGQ

For orientation: IC50 means the concentration that gives 50% inhibition.

In experiment [1] the target is T1, KPC-4 (Klebsiella pneumoniae, UniProt Q9F663, P103R/V239G). Nature of the experiment: IC50, nitrocefin hydrolysis after 10-minute preincubation, KPC-4. Type of experiment: biochemical.
The target of experiment [2] is T2, KPC-2 (Klebsiella pneumoniae, UniProt Q9F663). To be noted: read-out: Kiapp; cited from earlier work.
Experiment [3] has as its target T1, KPC-4. As to the kind of experiment: biochemical.
Experiment [4] deals with T3, KPC-3 (Klebsiella pneumoniae, UniProt Q9F663, H272Y). As to the kind of experiment: biochemical.
Experiment [5] deals with T3, KPC-3. Nature of the experiment: IC50, nitrocefin hydrolysis after 10-minute preincubation, KPC-3. Format: biochemical.
Experiment [6] deals with T2, KPC-2. Nature of the experiment: IC50, nitrocefin hydrolysis after 10-minute preincubation, KPC-2. Format: biochemical.
Experiment [7] concerns the target T2, KPC-2. Nature of the experiment: biochemical.

Where two headings read alike, the source gives them in different places.

`O=C(NC1CCNCC1)[C@@H]1CC[C@@H]2CN1C(=O)N2OS(=O)(=O)O` [Relebactam, relebactam]: the IC50 against KPC-4 [1] was 910 nM; against KPC-3 [5], 260 nM; against KPC-2 [6], 230 nM. Also, the Ki at KPC-2 [2] was 2300 nM; on KPC-4 [3], 4800 nM; on KPC-3 [4], 1500 nM; on KPC-2 [7], 1200 nM.
